Source: article PMC3406060

Columns and labels:
[1] = biological target: IRB/IGF1R hybrid receptor (IRB-Luc/IGF1R-YFP) (UniProt P06213)
[2] = biological target: IRA/IGF1R hybrid receptor (IRA-Luc/IGF1R-YFP) (UniProt P06213)
[3] = biological target: IRA homodimer (IRA-Luc/IRA-YFP) (UniProt P06213)
[4] = biological target: IRB homodimer (IRB-Luc/IRB-YFP) (UniProt P06213)
[5] = biological target: IRB/IGF1R hybrid receptor (IRB-Luc/IGF1R-YFP) (UniProt P06213); remark: listed apart in the source
[6] = biological target: IRA/IGF1R hybrid receptor (IRA-Luc/IGF1R-YFP) (UniProt P06213); remark: listed apart in the source
[7] = biological target: IRA homodimer (IRA-Luc/IRA-YFP) (UniProt P06213); remark: listed apart in the source
[8] = biological target: IRB homodimer (IRB-Luc/IRB-YFP) (UniProt P06213); remark: listed apart in the source
[9] = biological target: insulin receptor (IR), endogenous in MCF-7 and MDA-MB231 cells (human (endogenous in MCF-7 and MDA-MB231)) (UniProt P06213)

EC50 of ligand-induced BRET (Luc/YFP on the two ß-subunits) of partially purified receptors [1] [nM]	EC50 of ligand-induced BRET (Luc/YFP on the two ß-subunits) of partially purified receptors [2] [nM]	EC50 of ligand-induced BRET (Luc/YFP on the two ß-subunits) of partially purified receptors [3] [nM]	EC50 of ligand-induced BRET (Luc/YFP on the two ß-subunits) of partially purified receptors [4] [nM]	EC50 of ligand-induced BRET (Luc/YFP on the two ß-subunits) of partially purified receptors, series with M1 and M2 [5] [nM]	EC50 of ligand-induced BRET (Luc/YFP on the two ß-subunits) of partially purified receptors, series with M1 and M2 [6] [nM]	EC50 of ligand-induced BRET (Luc/YFP on the two ß-subunits) of partially purified receptors, series with M1 and M2 [7] [nM]	EC50 of ligand-induced BRET (Luc/YFP on the two ß-subunits) of partially purified receptors, series with M1 and M2 [8] [nM]	EC50 of PIP3 production (BRET, Luc-Akt-PH and membrane YFP) in living MDA-MB231 cells [9] [nM]	Substance
69.6	130	2.7	2.56	48.1	84.3	2.15	3.68	0.55	Human insulin (actrapid) (ligand)
34.1	128	1.48	2.97					0.59	aspart (B28Asp-insulin) (ligand)
7.6	18.1	2.38	2.39	6.28	10.2	2.04	3.88	0.78	glargine (A21Gly,B31Arg,B32Arg-insulin) (ligand)
23	55.7	1.65	2.46					0.43	lispro (B28Lys,B29Pro-insulin) (ligand)
